By UniProt entry, the sequences of proteins in these tests, tags left out.
Melanocortin receptor 4 (Homo sapiens), P32245, UniProt P32245, whole entry, looked up: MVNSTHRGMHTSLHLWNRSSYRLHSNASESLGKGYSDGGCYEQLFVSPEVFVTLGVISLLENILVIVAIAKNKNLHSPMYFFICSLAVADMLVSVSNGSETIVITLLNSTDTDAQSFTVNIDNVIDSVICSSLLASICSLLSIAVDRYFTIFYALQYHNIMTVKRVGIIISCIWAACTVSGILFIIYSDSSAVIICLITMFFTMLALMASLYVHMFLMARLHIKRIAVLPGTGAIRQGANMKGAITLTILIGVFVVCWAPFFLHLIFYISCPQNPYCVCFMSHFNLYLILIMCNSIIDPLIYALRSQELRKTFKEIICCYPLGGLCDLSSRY

# Bioassay records from PubChem.
# Most compounds without a hit are left out; they make up all but 4.2% or so of the library.
# MC4R antagonist: MC4R antagonists of cAMP signaling, primary screen, cell-based, TR-FRET, antagonist arm of biased-ligand search | 0.48% of 360,000 active | MC4R-expressing cells, MTII-stimulated cAMP, LANCE TR-FRET | AID 540295, 2011 | inhibition, % at 6.5 µM | Melanocortin receptor 4 (Homo sapiens), P32245;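 active = inhibition above its plate's cutoff, the mean of tested wells on that plate plus 3 SD, cut at about 29% in these data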;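 note: 0% = Melanotan II alone and 100% = Melanotan II plus saturating MCL0020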
#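 Material: U2OS-MC4R stable cell line | Reagent: Melanotan II challenge after compound preincubation | Doses: One concentration, 6.5 µM nominal | Incubation: 30-min compound preincubation, 1-h Melanotan II challenge, 1-h detection, room temperature | Signal: TR-FRET cAMP assay | Replicates: One well per compound, no replicates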
# NALP1 inh: NALP1 inflammasome inhibitors in reconstituted yeast, colorimetric, S. cerevisiae, triplicate retest; S. cerevisiae NALP1/ASC/caspase-1 growth, X-gal OD620, 72 h; inhibition, % at 10 µM; 0.61% of 280,000 active; in the data active = inhibition mostly above about 24%, no sharp cut-off; inactive = mostly below about 32%
# Yeast UUG start: yeast start codon fidelity modulation; activity score, % at 18.7 µM; actives 0.13% (n = 350,000); S. cerevisiae UUG-firefly luciferase reporter, luminescence/redox ratio; AID 602363;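 active means replicate mean at a twofold rise or more, about +100% in these data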;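 further: firefly luciferase made from a UUG start codon reports start codon fidelity; reporter light over untreated wells divided by growth signal over untreated wells; some hits fall short of that in this replicate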
# ALR inh: blocks human ALR sulfhydryl oxidase activity; P55789; purified ALR, DTT oxidation, H2O2 HRP-luminol luminescence; inhibition, % (test concentration not listed); 3.8% of 290,000 active; AID 485317;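 active = mean and each replicate at 75% or more; inconclusive = only one of the two met; inactive = neither met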;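 also: stock transfer was 7.5 nL into about 7.5 µL; 0% = neutral wells and 100% = wells with inactivated enzyme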
# MC4R barr agon: MC4R agonists recruiting beta-arrestin, primary screen, cell-based, luminescence, agonist arm of biased-ligand search; Melanocortin receptor 4 (Homo sapiens), P32245; U2OS MC4R beta-arrestin complementation; percent of melanotan II response, DMSO zero; activation, % at 8.9 µM; 0.98% of 360,000 active;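 active = activation above a per-plate cutoff, the mean activation of sample wells on that plate plus 3 SD, cut at about 8% in these data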
# HDAC3 inhib: HDAC3 deacetylase inhibitors, primary screen, biochemical, fluorescence, cell-free homogeneous. recombinant HDAC3, fluorogenic peptide/trypsin coupled. 0.15% of 320,000 active. inhibition, % at 8.3 µM. Histone deacetylase 3 (Homo sapiens), O15379; in the data active = inhibition above about 26%, passing the limit was not always enough; inconclusive = no clear call, values can overlap the other calls
# An asterisk follows results filed as active; ? = inconclusive; · = no result.
SMILES,MC4R antagonist,NALP1 inh,Yeast UUG start,ALR inh,MC4R barr agon,HDAC3 inhib
O=C(CN1CCCc2ccccc21)NCCc1ccc(F)cc1,1,8,·,108*,-2,0
C[C@H](CO)N1C[C@H](C)[C@H](CN(C)S(=O)(=O)c2ccc(Cl)cc2)Oc2ccc(NC(=O)Nc3ccc(F)cc3)cc2C1=O,·,·,-11,·,·,·
C/C(=N\Nc1nc(C)cc(-c2ccccc2)n1)c1ccc(O)cc1,-2,16,-11,96*,0,20
C/C(=N\Nc1nc(C)cc(-c2ccccc2)n1)c1cccc(N)c1,-2,0,-27,99*,0,7
C[C@@H]1CCCCO[C@@H](CN(C)S(=O)(=O)c2ccccc2)[C@H](C)CN([C@@H](C)CO)C(=O)c2cc(NC(=O)C3CCCCC3)ccc2O1,·,·,-2,·,·,·
CCc1c(O)nc(SCC(=O)Nc2ccccc2OC)[nH]c1=O,13,-3,-17,99*,0,-1
COc1ccc(Cc2c(O)nc(SCC(=O)c3ccc(OC)cc3)[nH]c2=O)cc1,13,-3,·,98*,-1,14
COc1ccc(Cc2c(O)nc(SCC(C)C)[nH]c2=O)cc1,16,7,-4,9,0,0
COc1ccccc1NC(=O)CSc1nc(O)c(Cc2ccccc2)c(=O)[nH]1,14,6,3,88*,-2,-3
COc1ccccc1NC(=O)CSc1nc(N)c(-c2ccccc2)c(=O)[nH]1,-1,2,·,-13,-3,1
COc1ccc(C(=O)CSc2cc(C)[nH]c(=O)n2)cc1,5,-12,-19,·,-1,61*
CCSc1nc(O)c(Cc2ccccc2)c(=O)[nH]1,-5,11,-17,-13,-2,6
COc1ccc(C(=O)CSc2nc(C)cc(=O)[nH]2)cc1,2,-1,-47,?,1,5
CO[C@@H]1CN(C)C(=O)c2ccc(NC(=O)Nc3ccccc3F)cc2OC[C@H](C)N(C(C)=O)C[C@H]1C,·,·,7,·,·,·
COc1ccccc1NC(=O)CSc1nc(O)cc(=O)[nH]1,5,32,·,98*,0,-2
COc1ccc(Cl)cc1NC(=O)CSc1nc(-c2ccccc2)cc(=O)[nH]1,5,16,-23,-2,0,1
COc1ccc(S(=O)(=O)N(C)C[C@H]2Oc3ccc(NC(=O)CCC(F)(F)F)cc3CC(=O)N([C@@H](C)CO)C[C@@H]2C)cc1,·,·,20,·,·,·
COc1cccc(-c2cc(C(=O)Nc3cccnc3Cl)no2)c1,0,21,-13,-2,-2,2
O=C(Nc1cccnc1Cl)c1cc(-c2cccc(O)c2)on1,6,14,-17,·,12*,4
Cc1cc2ncn(/N=C/c3ccc([N+](=O)[O-])s3)c2cc1C,-12,59*,·,-28,1,-1
O=[N+]([O-])c1ccc(/C=N/n2cnc3ccccc32)s1,-18,54*,-6,-19,-1,-6
CC(=O)Nc1ccc(N(C(=O)c2ccco2)C(C(=O)NC2CCCC2)c2ccc(N(C)C)cc2)cc1 (stereo unspecified),9,5,4,14,-2,-1
CN(C)c1ccc(C(C(=O)NC2CCCC2)N(C(=O)c2ccco2)C2CC2)cc1 (stereo unspecified),-3,2,-11,99*,0,2
CC(C)Nc1ccc(Nc2ccnc3cc4ccccc4cc23)cc1,-12,7,·,99*,8.5*,·

# Records listed so far shown as hits in MC4R barr agon:
SMILES,MC4R antagonist,NALP1 inh,Yeast UUG start,ALR inh,MC4R barr agon,HDAC3 inhib
O=C(Nc1cccnc1Cl)c1cc(-c2cccc(O)c2)on1,6,14,-17,·,12*,4
CC(C)Nc1ccc(Nc2ccnc3cc4ccccc4cc23)cc1,-12,7,·,99*,8.5*,·

# The results go on:
SMILES,MC4R antagonist,NALP1 inh,Yeast UUG start,ALR inh,MC4R barr agon,HDAC3 inhib
c1ccc(CCNc2ccnc3cc4ccccc4cc23)cc1,-11,9,·,·,17*,·
CCC(=O)Nc1nc(-c2ccc3c(c2)OCCO3)cs1,9,42,-30,86*,1,3
O=C(Nc1nc(-c2ccc3c(c2)OCCO3)cs1)c1ccco1,3,19,-16,30,-2,-2
c1cc2c(cc1-c1csc(NNC3=NCCCCC3)n1)OCCO2,·,3,·,98*,·,16
Cc1ccc(-c2csc(NC(=O)CN3CC(C)OC(C)C3)n2)cc1 (stereo unspecified),0,-2,-8,98*,-1,?
NC(=O)C1CCN(c2nc(-c3ccc(Br)cc3)cs2)CC1,-1,21,·,·,3,·
NC(=O)C1CCN(c2nc(-c3ccc4c(c3)OCCO4)cs2)CC1,·,·,·,98*,·,-6
C[C@H](CO)N1C[C@H](C)[C@@H](CN(C)S(=O)(=O)c2ccccc2)Oc2ncc(Br)cc2C1=O,·,·,12,·,·,·
C[C@@H]1CN([C@H](C)CO)C(=O)c2cc(NC(=O)CCCN(C)C)ccc2O[C@@H]1CN(C)S(=O)(=O)c1cccs1,·,·,3,·,·,·
O=C(CCN1C(=O)C2CC=C(Cl)CC2C1=O)NC1CCCCC1 (stereo unspecified),-1,42*,1,-12,-1,-2
O=C1C2CC=C(Cl)CC2C(=O)N1CCCCCCN1C(=O)C2CC=C(Cl)CC2C1=O (stereo unspecified),3,6,-2,0,1,1
O=C1CCCC2=C1C(c1ccc(O)c(O)c1)Nc1ccc3ncccc3c12 (stereo unspecified),23,-5,-2,99*,0,6
O=C1CCCC2=C1C(c1cccs1)Nc1ccc3ncccc3c12 (stereo unspecified),-6,0,-11,-12,-2,3
Cc1nn(C)c(Nc2ccc(Br)cc2)c1Br,10,12,·,93*,-1,14
Cc1cc(C)nc(-n2nc(C)c(Br)c2Nc2ccc(Br)cc2)n1,-8,8,-30,-3,2,0
CCOC(=O)c1ccc(N2C(=O)C=CC2=O)cc1,22,108*,0,35,-4,0
CCOC(=O)c1ccc(N2C(=O)CC(Sc3nnc(C)s3)C2=O)cc1 (stereo unspecified),13,40*,-20,91*,-2,3
CCOC(=O)c1ccc(N2C(=O)CC(Sc3nc(C)cc(C)n3)C2=O)cc1 (stereo unspecified),-1,10,-3,22,-1,-8
Nc1nnc(SC2CC(=O)N(c3ccccc3)C2=O)s1 (stereo unspecified),1,37*,-20,25,-2,-3
COc1ccc(N2C(=O)CC(Sc3nc4ccccc4s3)C2=O)cc1OC (stereo unspecified),-1,3,-4,97*,0,-7
CCCC#Cc1cnc2c(c1)C(=O)N([C@@H](C)CO)C[C@@H](C)[C@@H](CN(C)C(=O)c1cccnc1)O2,·,·,-19,·,·,·

# Copied from the list.
# Nc1nnc(SC2CC(=O)N(c3ccccc3)C2=O)s1 (stereo unspecified) – HDAC3 inhib = -3
# Cc1cc(C)nc(-n2nc(C)c(Br)c2Nc2ccc(Br)cc2)n1 – NALP1 inh = 8
# CCOC(=O)c1ccc(N2C(=O)CC(Sc3nnc(C)s3)C2=O)cc1 (stereo unspecified) – Yeast UUG start = -20
# CCOC(=O)c1ccc(N2C(=O)C=CC2=O)cc1 – MC4R antagonist = 22
# CCCC#Cc1cnc2c(c1)C(=O)N([C@@H](C)CO)C[C@@H](C)[C@@H](CN(C)C(=O)c1cccnc1)O2 – Yeast UUG start = -19
